Measurements from patent publication US11167037B2, “Antibody drug conjugate platform using bispecific antibody” (SEOUL NATIONAL UNIVERSITY R&DB FOUNDATION, priority 2016, dated 2021).

Test system: A549 cells
Assay: Cell viability assay (Cell Titer-Glo, 72 hrs)
Type: cell-based, human
Description: A549 cells were seeded in 50 μL RPMI-1640 medium in black-walled 96-well plates (4,000 cells per well) and allowed to adhere overnight at 37° C. in 5% CO2 and humidified atmosphere. […] In the control experiments, instead of ERC6, palivizumab (Boehringer Ingelheim Pharma), or cetuximab (Merck K GaA) was used. The cotinine-duocarmycin and antibody dilutes in 50 μL medium were added to each well, and cultured for 72 hrs. After adding Cell Titer-Glo reagent (Promega Corp.) to each well, luminescence signals were measured using a microplate luminometer (PerkinElmer, Waltham, Mass., USA) according to the manufacturer's instructions. All experiments were conducted in triplicate. The relative cell viability was calculated by dividing by the control luminescence signal [% viability=(Test−Background)/(Control−Background)×100].

Substance: cetuximab
- cytotoxic / anti-proliferative effect (relative cell viability): could not significantly inhibit the proliferation
